Data on one substance can be found in PMC12526156, “Optimization of the Macrocyclic Tetrapeptide [D-Trp]CJ-15,208 to Prevent Stress-Induced Relapse of Cocaine-Seeking Behavior” (Molecules, 2025).

Protein sequences, listed by entry. Tags and fused reporters are not part of them.
UniProt P35372, whole entry: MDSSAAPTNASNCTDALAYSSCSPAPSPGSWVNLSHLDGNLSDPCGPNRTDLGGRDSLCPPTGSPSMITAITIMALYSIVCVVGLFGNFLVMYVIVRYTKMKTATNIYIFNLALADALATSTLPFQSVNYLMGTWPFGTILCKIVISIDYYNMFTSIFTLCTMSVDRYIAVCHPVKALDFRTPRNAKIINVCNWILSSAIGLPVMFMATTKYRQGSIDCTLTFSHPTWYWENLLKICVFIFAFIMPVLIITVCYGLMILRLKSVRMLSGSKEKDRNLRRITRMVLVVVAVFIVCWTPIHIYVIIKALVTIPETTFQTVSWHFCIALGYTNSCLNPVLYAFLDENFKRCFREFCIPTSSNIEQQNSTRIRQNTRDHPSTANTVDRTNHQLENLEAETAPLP

The test has as its target human MOR (Homo sapiens, UniProt P35372). As to conditions: read-out: Kd for binding to hMOR-CHO membranes.

Consider “[^3H][D-Ala^2,N-MePhe^4,glyol]enkephalin [[^3H]DAMGO]”, for which the dissociation constant (Kd) (in general, the free concentration of one partner at which half of the binding sites on the other are occupied at equilibrium, for simple one-to-one binding) turned out to be 0.556 nM.
